pIC50: −log10 of the molar value.
Molecular target: T1, Protein deacetylase HDAC6 (Homo sapiens, UniProt Q9UBN7)
T1 sequence (Q9UBN7 whole entry): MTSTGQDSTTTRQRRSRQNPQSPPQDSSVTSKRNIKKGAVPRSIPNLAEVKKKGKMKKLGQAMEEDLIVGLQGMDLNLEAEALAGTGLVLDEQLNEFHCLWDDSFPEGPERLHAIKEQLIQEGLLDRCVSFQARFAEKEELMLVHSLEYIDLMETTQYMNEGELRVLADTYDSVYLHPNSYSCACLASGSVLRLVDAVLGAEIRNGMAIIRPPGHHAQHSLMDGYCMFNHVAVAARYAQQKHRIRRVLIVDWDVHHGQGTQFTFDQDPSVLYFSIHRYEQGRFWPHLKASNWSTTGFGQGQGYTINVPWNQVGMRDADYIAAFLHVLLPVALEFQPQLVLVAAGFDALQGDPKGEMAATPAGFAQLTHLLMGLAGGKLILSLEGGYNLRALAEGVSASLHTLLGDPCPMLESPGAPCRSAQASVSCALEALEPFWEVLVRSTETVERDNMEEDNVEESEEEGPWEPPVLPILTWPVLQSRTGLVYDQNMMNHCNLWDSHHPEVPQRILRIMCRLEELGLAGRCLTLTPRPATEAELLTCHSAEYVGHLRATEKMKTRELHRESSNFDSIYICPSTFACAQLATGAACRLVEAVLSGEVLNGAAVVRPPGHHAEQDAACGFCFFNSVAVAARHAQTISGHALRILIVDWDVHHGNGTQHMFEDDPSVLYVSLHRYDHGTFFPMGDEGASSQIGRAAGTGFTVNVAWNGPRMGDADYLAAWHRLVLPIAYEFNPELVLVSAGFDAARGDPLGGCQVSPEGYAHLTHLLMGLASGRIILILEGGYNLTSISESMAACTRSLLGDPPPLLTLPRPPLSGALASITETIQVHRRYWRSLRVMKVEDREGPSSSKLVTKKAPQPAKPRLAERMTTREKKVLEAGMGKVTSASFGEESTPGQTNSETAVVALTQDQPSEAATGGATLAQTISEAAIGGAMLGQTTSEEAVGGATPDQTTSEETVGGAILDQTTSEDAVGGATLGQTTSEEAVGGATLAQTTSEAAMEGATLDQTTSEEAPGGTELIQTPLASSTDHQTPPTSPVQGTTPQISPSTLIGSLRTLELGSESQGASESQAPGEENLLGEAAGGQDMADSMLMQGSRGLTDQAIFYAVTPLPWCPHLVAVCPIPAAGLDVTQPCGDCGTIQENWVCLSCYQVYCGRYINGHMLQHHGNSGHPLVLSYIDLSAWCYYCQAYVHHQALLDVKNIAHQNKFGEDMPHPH
Test: Inhibition of recombinant human KDAC6 using FITC-histone 4 acetylated peptide substrate incubated for 60 mins by microfluidic chip-based assay

## CC(C)[C@@H]1NC(=O)[C@@H]2CCCN2C(=O)[C@H]2CCCN2C(=O)C[C@@H](C(=O)NCCCC(=O)NO)NC1=O
  pIC50: 5.29
